scFv variants of Ab-14 (light chain) against a SARS-CoV-2 spike peptide

Reference: Engelhart et al. 2022, doi:10.1038/s41597-022-01779-4. File: FLAb, binding data.

Target peptide (SARS-CoV-2 spike, HR2 region): PDVDLGDISGINAS

Parent: Ab-14, a human scFv built as VH, a (GGGGS)3 linker, VL. Only the CDRs of the light chain vary.
VH: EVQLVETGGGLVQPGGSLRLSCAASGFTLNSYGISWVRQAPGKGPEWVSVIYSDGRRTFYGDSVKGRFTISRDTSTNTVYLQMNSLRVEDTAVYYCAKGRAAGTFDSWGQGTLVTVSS
VL: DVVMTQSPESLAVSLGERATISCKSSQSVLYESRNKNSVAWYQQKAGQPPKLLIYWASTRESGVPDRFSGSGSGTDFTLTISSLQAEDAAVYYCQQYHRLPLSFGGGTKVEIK

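Phage display of a naive human antibody library on the peptide gave the parent. The library (AAYL50) carries one to three amino acid substitutions per variant, with no insertions or deletions. The scFvs were displayed on barcoded MATa yeast, the peptide on MATalpha yeast. After mating in shaken culture at 30 °C for 16 h, diploids were selected and their barcode pairs sequenced. The ratio of observed to expected reads was calibrated, replicate by replicate, on BCL2-family standards whose Kd was known from biolayer interferometry. The assay was run in three technical replicates.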

Substitutions are numbered in sequence along the VL above, starting at 1 (not Kabat). All variants listed here change V39 of the VL, counted from its first residue. Each Kd is an estimate from the mating assay, the geometric mean of the replicates in which the pair was seen; lower is stronger. An entry "no signal" has no value in the source: the pair was not observed among the diploids in any replicate. This suggests poor binding but is not conclusive. Nonspecific signal, from three strains lacking the peptide, appeared in 18% of pairings of library AAYL50, centred on 15 µM (5% of these signals below 970 nM); values are not corrected for it. For reference, the parent read 4.4 nM as the reference entry and 48 nM as a member of this library.

For V29C/V39P/E61N, the assay gave no signal (0 of 3 replicates). With L30A/V39G/E61C the result was 8.2 nM (3 of 3 replicates). The variant N35P/V39K/P101G showed no signal (0 of 3 replicates). With V39M/Y97F/R99L the result was 6.4 nM (3 of 3 replicates). The variant S28W/N37F/V39W showed no signal (0 of 3 replicates). With S38A/V39I/P101I the result was 27 nM (3 of 3 replicates). With S33P/V39R/A57Q the result was no signal (0 of 3 replicates).

The variant Y31G/V39M/S62K showed 8.0 nM (3 of 3 replicates). With V39A/A40H/E61M the result was 870 µM (1 of 3 replicates). For L30I/V39I/H98E, the assay gave 150 nM (3 of 3 replicates). For V39C/T59P/Q95W, the assay gave no signal (0 of 3 replicates). With S28E/E32G/V39H the result was 260 µM (1 of 3 replicates). For S28C/V39F, the assay gave no signal (0 of 3 replicates). The variant V29H/V39H/R60Y gave no signal (0 of 3 replicates).

For V39R/S62C, the assay gave no signal (0 of 3 replicates). The variant L30V/V39Q/P101Q showed 240 µM (1 of 3 replicates). For V39T/S62Q/L100E, the assay gave no signal (0 of 3 replicates). For S28Y/V39W/Y97Q, the assay gave 130 µM (1 of 3 replicates). The variant V39E/H98R/S103P showed no signal (0 of 3 replicates). The variant R34P/V39Y/H98A gave 3.5 µM (2 of 3 replicates). With N35F/V39N/S58L the result was 1.8 µM (1 of 3 replicates).

The variant N35M/K36G/V39F gave 31 µM (2 of 3 replicates). With Q27N/V39I/H98Q the result was 3.6 nM (3 of 3 replicates). The variant S26L/S33P/V39L gave 88 nM (3 of 3 replicates). With V39S/R60W/P101R the result was no signal (0 of 3 replicates). The variant E32G/V39T/S62Y gave 52 µM (1 of 3 replicates). The variant S38Q/V39W/R60D showed no signal (0 of 3 replicates). With V39A/Y97L/S103N the result was 38 µM (3 of 3 replicates).

The variant V39R/A57T showed no signal (0 of 3 replicates). For V39W/R60V/E61W, the assay gave no signal (0 of 3 replicates). The variant R34F/V39R/L100S gave 11 µM (2 of 3 replicates). For V29A/Y31M/V39Q, the assay gave no signal (0 of 3 replicates). For K24Y/S33H/V39Y, the assay gave 4.0 µM (1 of 3 replicates). The variant N37P/V39K/L100V showed 17 µM (1 of 3 replicates). The variant L30S/K36N/V39R gave no signal (0 of 3 replicates).

For S38G/V39E/L102V, the assay gave 23 µM (1 of 3 replicates). The variant V39M/Q95H showed 4.8 µM (1 of 3 replicates). For L30Y/V39Y/S103I, the assay gave 1.5 µM (1 of 3 replicates). With V39Q/L102S/S103I the result was 19 µM (1 of 3 replicates). With V29C/N35Q/V39A the result was 2.3 µM (1 of 3 replicates). The variant L30R/V39Q/H98C showed 560 µM (1 of 3 replicates). The variant V29M/V39A/R99N gave 77 µM (1 of 3 replicates).

For V39Q/Q96D/Y97P, the assay gave 46 µM (1 of 3 replicates). For E32W/V39Y/E61H, the assay gave 8.8 µM (2 of 3 replicates).

Excerpt, the first 7 entries:

{"changes": "V29C/V39P/E61N", "Kd (apparent)": "no signal", "seen in": "0/3"}
{"changes": "L30A/V39G/E61C", "Kd (apparent)": "8.2 nM", "seen in": "3/3"}
{"changes": "N35P/V39K/P101G", "Kd (apparent)": "no signal", "seen in": "0/3"}
{"changes": "V39M/Y97F/R99L", "Kd (apparent)": "6.4 nM", "seen in": "3/3"}
{"changes": "S28W/N37F/V39W", "Kd (apparent)": "no signal", "seen in": "0/3"}
{"changes": "S38A/V39I/P101I", "Kd (apparent)": "27 nM", "seen in": "3/3"}
{"changes": "S33P/V39R/A57Q", "Kd (apparent)": "no signal", "seen in": "0/3"}